Assay results as given in patent US20240139185A1, “COMPOUNDS THAT PARTICIPATE IN COOPERATIVE BINDING AND USES THEREOF” (Revolution Medicines, Inc., priority 2018, published 2024).

Assays:
cyclophilin A (CYPA) = cyclophilin A (CYPA) (Homo sapiens, UniProt P62937); assay: CYPA-compound binary complex formation by SPR; details: read-out: CYPA Binding Affinity
Summary of the method: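 Steady-state fit of SPR responses gave binding affinity. Analyte series: 50 μM downward, 2-fold, 10 points, running buffer HBS-P+ (0.05% Tween20, pH7.4, 2% DMSO), 60 s on/60 s off. Surface: biotinylated CypA-Avi captured at 4 μg/ml against a reference cell, regenerated with NaOH/guanidine.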

[1] = molecular target: BRAF-GTP-KRAS-G12C complex (Homo sapiens, UniProt P01116+P62937, G12C); assay: KRAS-BRAF complex disruption through competition with CYPA-compound by TR-FRET; details: read-out: BRAF-GTP-KRAS-G12C Disruption; biochemical BRAF-KRAS G12C-GTP disruption assay EC50, with CYPA
Summary of the method: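 Compound-driven loss of KRAS–BRAF RBD TR-FRET signal, Eu-anti-His/APC-anti-GST pair (10/50 nM, 1.5 h), following a 3 h room-temperature preincubation of 50 nM His6-KRAS G12C-GTP and 500 nM CypA in 25 mM Hepes pH 7.3 buffer. EC50 by 4-parameter fit. Variants used wild-type KRAS in place of G12C or no CypA.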

pERK in H358 cells = assay: pERK inhibition in H358 cells; details: read-out: Cellular pERK inhibition, 4 hours treatment
Summary of the method: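 Human lung cancer H358 cells in RPMI/10% FBS were exposed to compound or DMSO for 4 h. Fixed and permeabilized cells were stained overnight at 4 C with anti-phospho-ERK1/2 (Thr202/Tyr204). Near-infrared imaging read the pERK signal at 800 nm, with DRAQ5 at 700 nm.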

Structure (SMILES) | pKd (cyclophilin A (CYPA)) | pEC50 [1] | pIC50 (pERK in H358 cells)
Cc1nc2ccc3cc2n1C(C)CCOC(=O)[C@@H]1CCCN(N1)C(=O)[C@@H](NC(=O)[C@H](C(C)C)N(C)C(=O)C1CN(C(=O)CCl)C1)Cc1cc(O)cc-3c1 (stereo partly drawn) | > 5.30 | < 5.30 | < 5.00
C=CC(=O)N1CCC(CC(=O)N(C)[C@H](C(=O)N[C@H]2Cc3cc(O)cc(c3)-c3ccc4c(c3)c(c(C#N)n4CC)CC(C)(C)COC(=O)[C@@H]3CCCN(N3)C2=O)C(C)C)CC1 | < 4.82 | 5.30 to 6.30 | < 5.00
CC(C)[C@@H](C(=O)N[C@H]1Cc2cc(O)cc(c2)-c2ccc3c(c2)n(c(=O)n3C2CCC2)C[C@H](C)COC(=O)[C@@H]2CCCN(N2)C1=O)N(C)C(=O)C1CN(C(=O)CCl)C1 | 4.82 to 5.30 | > 6.30 | > 6.00
C=CC(=O)N1CC[C@H](C(=O)N(C)[C@H](C(=O)N[C@H]2Cc3cc(O)cc(c3)-c3ccc4c(c3)c(cn4CCC3CCOCC3)CC(C)(C)COC(=O)[C@@H]3CCCN(N3)C2=O)C(C)C)C1 | > 5.30 | > 6.30 | > 6.00
COc1ccccc1-c1cc2ccc3cc2n1C[C@H](C)COC(=O)[C@@H]1CCCN(N1)C(=O)[C@@H](NC(=O)[C@H](C(C)C)N(C)C(=O)C1CN(C(=O)CCl)C1)Cc1cc(O)cc-3c1 | < 4.82 | > 6.30 | > 6.00
C=CC(=O)N1CCC[C@H](C(=O)N(C)[C@H](C(=O)N[C@H]2Cc3cc(O)cc(c3)-c3ccc4c(C(C)(C)C#N)cn(c4c3)CC(C)(C)COC(=O)[C@@H]3CCCN(N3)C2=O)C(C)C)C1 | 4.82 to 5.30 | < 5.30 | < 5.00
C=CC(=O)N1CCC(C(=O)N(C)[C@H](C(=O)N[C@H]2Cc3cc(O)cc(c3)-c3ccc4c(C(C)(C)C#N)cn(c4c3)CC3(COC3)COC(=O)[C@@H]3CCCN(N3)C2=O)C(C)C)C1 (stereo partly drawn) | < 4.82 | < 5.30 | < 5.00
CC(Cl)C(=O)N1CC2(CCN([C@H](C(=O)N[C@H]3Cc4cc(O)cc(c4)-c4ccc5c(C(C)(C)C#N)cn(c5c4)CC(C)(C)COC(=O)[C@@H]4CCCN(N4)C3=O)C(C)C)C2=O)C1 (stereo partly drawn) | < 4.82 | < 5.30 | < 5.00
C=CC(=O)N(C)[C@@H]1CCN([C@H](C(=O)N[C@H]2Cc3cc(O)cc(c3)-c3ccc4c(C(C)(C)C#N)cn(c4c3)C[C@H](C)COC(=O)[C@@H]3CCCN(N3)C2=O)C(C)C)C1=O | > 5.30 | < 5.30 | < 5.00
CC(C)[C@@H](C(=O)N[C@H]1Cc2cc(O)cc(c2)-c2ccc3c(C(C)(C)C#N)cn(c3c2)CC(CC2CC2)COC(=O)[C@@H]2CCCN(N2)C1=O)N(C)C(=O)C1CN(C(=O)CCl)C1 (stereo partly drawn) | 4.82 to 5.30 | > 6.30 | 5.00 to 6.00
CC(C)[C@@H](C(=O)N[C@H]1Cc2cc(O)cc(c2)-c2ccc3c(C(C)(C)C#N)cn(c3c2)CC(C)(C)COC(=O)[C@@H]2CCCN(N2)C1=O)N1CCC2(CCN(C(=O)CCl)CC2)C1=O | > 5.30 | > 6.30 | > 6.00
CC#CC(=O)N1CCC(F)(C(=O)N(C)[C@H](C(=O)N[C@H]2Cc3cc(O)cc(c3)-c3ccc4c(C(C)(C)C#N)cn(c4c3)CC(C)(C)COC(=O)[C@@H]3CCCN(N3)C2=O)C(C)C)CC1 | < 4.82 | 5.30 to 6.30 | 5.00 to 6.00
C=CC(=O)N1CC[C@H](C(=O)N(C)[C@H](C(=O)N[C@H]2Cc3cc(O)cc(c3)-c3ccc4c(c3)N(CC(C)(C)COC(=O)[C@@H]3CCCN(N3)C2=O)CC4(C)c2cccnc2)C(C)C)C1 (stereo partly drawn) | < 4.82 | 5.30 to 6.30 | < 5.00
C=CC(=O)N1CCC(C(=O)N(C)[C@H](C(=O)N[C@H]2Cc3cc(O)cc(c3)-c3ccc4c(C(C#N)C5CCOCC5)cn(c4c3)CC(C)(C)COC(=O)[C@@H]3CCCN(N3)C2=O)C(C)C)C1 (stereo partly drawn) | > 5.30 | 5.30 to 6.30 | 5.00 to 6.00
CC#CC(=O)N1CCC2(CCN([C@H](C(=O)N[C@H]3Cc4cc(O)cc(c4)-c4ccc5c(C(C)(C)C#N)cn(c5c4)CC(C)(C)COC(=O)[C@@H]4CCCN(N4)C3=O)C(C)C)C2=O)C1 (stereo partly drawn) | > 5.30 | 5.30 to 6.30 | < 5.00
CC#CC(=O)N1CC[C@H](C(=O)N(C)[C@H](C(=O)N[C@H]2Cc3cc(O)cc(c3)-c3ccc4c(C(C)(C)C#N)cn(c4c3)CC(C)(C)COC(=O)[C@@H]3CCCN(N3)C2=O)C(C)C)C1 | 4.82 to 5.30 | 5.30 to 6.30 | < 5.00
C=CC(=O)N1CCC2(CC1)CCN([C@H](C(=O)N[C@H]1Cc3cc(O)cc(c3)-c3ccc4c(C(C)(C)C#N)cn(c4c3)CC(C)(C)COC(=O)[C@@H]3CCCN(N3)C1=O)C(C)C)C2=O | 4.82 to 5.30 | < 5.30 | 5.00 to 6.00

Structure (SMILES) | pKd (cyclophilin A (CYPA)) | pEC50 [1] | pIC50 (pERK in H358 cells)
C[C@@H](Cl)C(=O)N1CC(C(=O)N(C)[C@H](C(=O)N[C@H]2Cc3cc(O)cc(c3)-c3ccc4c(C(C)(C)C#N)cn(c4c3)CC(C)(C)COC(=O)[C@@H]3CCCN(N3)C2=O)C2CCCC2)C1 | > 5.30 | 5.30 to 6.30 | 5.00 to 6.00
C=CC(=O)N1CC[C@H](C(=O)N(C)[C@H](C(=O)N[C@H]2Cc3cc(O)cc(c3)-c3ccc4c(C(C)(C)C#N)cn(c4c3)CC(C)(C)COC(=O)[C@@H]3CCCN(N3)C2=O)C(C)C)C1 | < 4.82 | < 5.30 | < 5.00
COCC(C#N)(COC)c1cn2c3cc(ccc13)-c1cc(O)cc(c1)C[C@H](NC(=O)[C@H](C(C)C)N(C)C(=O)C1CN(C(=O)CCl)C1)C(=O)N1CCC[C@H](N1)C(=O)OCC(C)(C)C2 | < 4.82 | > 6.30 | < 5.00
CC(C)[C@@H](C(=O)N[C@H]1Cc2cc(O)cc(c2)-c2ccc3c(C(C)(C)C#N)cn(c3c2)CC(C)(C)COC(=O)[C@@H]2CCCN(N2)C1=O)N1CCCC2(CCN(C(=O)CCl)C2)C1=O (single isomer, unassigned) | > 5.30 | > 6.30 | > 6.00
CC(C)[C@@H](C(=O)N[C@H]1Cc2cc(O)cc(c2)-c2ccc3c(C(C)(C)C#N)cn(c3c2)CC(C)(C)COC(=O)[C@@H]2CCCN(N2)C1=O)N1CCC2(CN(C(=O)[C@H](C)Cl)C2)C1=O | > 5.30 | < 5.30 | < 5.00
CC(C)[C@@H](C(=O)N[C@H]1Cc2cc(O)cc(c2)-c2ccc3c(-c4c(Cl)cccc4C#N)cn(c3c2)CC(C)(C)COC(=O)[C@@H]2CCCN(N2)C1=O)N(C)C(=O)C1CN(C(=O)CCl)C1 | 4.82 to 5.30 | > 6.30 | > 6.00
C=CC(=O)N1CC(F)(C(=O)N(C)[C@H](C(=O)N[C@H]2Cc3cc(O)cc(c3)-c3ccc4c(c3)n(c(=O)n4C3CC3)C[C@H](C)COC(=O)[C@@H]3CCCN(N3)C2=O)C(C)C)C1 | > 5.30 | 5.30 to 6.30 | < 5.00
CC(C)[C@@H](C(=O)N[C@H]1Cc2cc(O)cc(c2)-c2ccc3cc(C(=O)N(C)C)n(c3c2)C[C@H](C)COC(=O)[C@@H]2CCCN(N2)C1=O)N(C)C(=O)C1CN(C(=O)CCl)C1 | > 5.30 | > 6.30 | 5.00 to 6.00
CC#CC(=O)N1CC[C@@H](C(=O)N(C)[C@H](C(=O)N[C@H]2Cc3cc(O)cc(c3)-c3ccc4c(C(C)(C)C#N)cn(c4c3)CC(C)(C)COC(=O)[C@@H]3CCCN(N3)C2=O)C(C)C)C1 | 4.82 to 5.30 | 5.30 to 6.30 | < 5.00
CC(C)[C@@H](C(=O)N[C@H]1Cc2cc(O)cc(c2)-c2ccc3c4c(n(c3c2)C[C@H](C)COC(=O)[C@@H]2CCCN(N2)C1=O)CCCC4=O)N(C)C(=O)C1CN(C(=O)CCl)C1 | 4.82 to 5.30 | > 6.30 | < 5.00
CC(C)[C@@H](C(=O)N[C@H]1Cc2cc(O)cc(c2)-c2ccc3c(C(C)(C)C#N)cn(c3c2)C[C@H](C)COC(=O)[C@@H]2CCCN(N2)C1=O)N(C)C(=O)C1CN(C(=O)CCl)C1 | 4.82 to 5.30 | > 6.30 | > 6.00
CC(C)[C@@H](C(=O)N[C@H]1Cc2cc(O)cc(c2)-c2ccc3c(C(C)(C)C#N)nn(c3c2)CC(C)(C)COC(=O)[C@@H]2CCCN(N2)C1=O)N(C)C(=O)C1CN(C(=O)CCl)C1 | < 4.82 | > 6.30 | 5.00 to 6.00
C=CC(=O)N1CC[C@H](C(=O)N(C)[C@H](C(=O)N[C@H]2Cc3cc(O)cc(c3)-c3ccc4c(c3)c(cn4C(C)(C)C#N)CC(C)(C)COC(=O)[C@@H]3CCCN(N3)C2=O)[C@@H](C)CC)C1 | > 5.30 | 5.30 to 6.30 | > 6.00
CC(C)[C@@H](C(=O)N[C@H]1Cc2cc(O)cc(c2)-c2ccc3cc4n(c3c2)CC(COC4)COC(=O)[C@@H]2CCCN(N2)C1=O)N(C)C(=O)C1CN(C(=O)CCl)C1 | > 5.30 | 5.30 to 6.30 | < 5.00
COC(C)C(C)(C)c1cn2c3cc(ccc13)-c1cc(O)cc(c1)C[C@H](NC(=O)[C@H](C(C)C)N(C)C(=O)C1CN(C(=O)CCl)C1)C(=O)N1CCC[C@H](N1)C(=O)OCC(C)(C)C2 (stereo partly drawn) | < 4.82 | > 6.30 | 5.00 to 6.00
CC(C)[C@@H](C(=O)N[C@H]1Cc2cc(O)cc(c2)-c2ccc3c(C4(C#N)CCOCC4)cn(c3c2)C[C@H](C)COC(=O)[C@@H]2CCCN(N2)C1=O)N(C)C(=O)C1CN(C(=O)CCl)C1 | 4.82 to 5.30 | > 6.30 | 5.00 to 6.00
C=CC(=O)N1CC[C@H](C(=O)N(C)[C@H](C(=O)N[C@H]2Cc3cc(O)cc(c3)-c3ccc4c(C(C#N)C5CCOC5)cn(c4c3)CC(C)(C)COC(=O)[C@@H]3CCCN(N3)C2=O)C(C)C)C1 (stereo partly drawn) | 4.82 to 5.30 | 5.30 to 6.30 | < 5.00

pEC50, pIC50, pKd: −log10 of the molar value.
